Experimental data taken from ChEMBL document CHEMBL3244030, “2-Methoxyphenylethanolamines, potential beta-adrenergic blocking agents” (J Med Chem, 1978).

The chains behind the UniProt entries cited, without tags or fusion partners.
UniProt Q8K4Z4, whole entry: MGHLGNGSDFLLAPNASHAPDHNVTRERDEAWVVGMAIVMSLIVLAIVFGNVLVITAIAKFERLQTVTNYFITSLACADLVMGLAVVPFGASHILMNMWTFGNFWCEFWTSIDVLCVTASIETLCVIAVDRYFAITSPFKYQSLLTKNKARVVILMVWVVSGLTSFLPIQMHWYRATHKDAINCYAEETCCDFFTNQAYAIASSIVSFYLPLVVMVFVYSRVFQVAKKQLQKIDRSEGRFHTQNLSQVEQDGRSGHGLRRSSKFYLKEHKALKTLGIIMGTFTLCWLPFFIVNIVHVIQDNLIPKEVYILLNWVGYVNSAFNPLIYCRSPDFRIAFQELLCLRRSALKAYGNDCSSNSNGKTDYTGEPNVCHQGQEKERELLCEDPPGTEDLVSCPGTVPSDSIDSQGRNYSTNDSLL

Assays:
[1] = target: Beta-2 adrenergic receptor (Cavia porcellus, UniProt Q8K4Z4); experiment: Antagonist activity at beta2 adrenoceptor in guinea pig trachea assessed as inhibition of isoproterenol-induced response after 20 mins; settings: read-out: pA2 (converted)
Cavia porcellus = organism: Cavia porcellus; experiment: Selectivity ratio for beta1 adrenoceptor in guinea pig atrium over beta2 adrenoceptor in guinea pig trachea; format: tissue-based; settings: Cardiac atrium

## CC(C)NCC(O)COc1ccc(CC(N)=O)cc1 (configuration not stated) [ATENOLOL]
[1]
  Kb: 1.26 µM
Cavia porcellus
  Selectivity ratio: 30
